Laboratory results as given in publication PMC6222696, “Inhibition of UGT2B7 Enzyme Activity in Human and Rat Liver Microsomes by Herbal Constituents” (Molecules : A Journal of Synthetic Chemistry and Natural …, 2018).
Like-named read-outs stand apart in the source and are kept apart here.

Biological target: T1, UGT2B7 (Homo sapiens, UniProt P16662)
T1 sequence (P16662 24-529): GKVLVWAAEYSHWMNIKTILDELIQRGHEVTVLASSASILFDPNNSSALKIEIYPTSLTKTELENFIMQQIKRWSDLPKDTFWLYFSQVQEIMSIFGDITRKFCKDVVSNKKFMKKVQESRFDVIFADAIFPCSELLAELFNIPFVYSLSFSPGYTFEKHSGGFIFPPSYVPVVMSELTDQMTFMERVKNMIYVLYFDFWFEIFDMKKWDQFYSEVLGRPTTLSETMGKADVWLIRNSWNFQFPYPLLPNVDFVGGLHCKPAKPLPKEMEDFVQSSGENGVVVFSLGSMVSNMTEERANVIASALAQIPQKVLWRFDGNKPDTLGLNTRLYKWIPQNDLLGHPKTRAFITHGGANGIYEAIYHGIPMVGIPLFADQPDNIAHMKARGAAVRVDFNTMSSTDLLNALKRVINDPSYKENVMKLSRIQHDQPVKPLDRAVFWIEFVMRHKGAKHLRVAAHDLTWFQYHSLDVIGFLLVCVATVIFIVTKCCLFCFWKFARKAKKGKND
Assay: Inhibition of ZDV glucuronidation in human liver microsomes (HLM)

kaempferol-3-O-rutinoside [kaempferol-3-rutinoside]
IC50 (read-out: IC50 for inhibition of ZDV glucuronidation in HLM, human liver microsomes, ZDV as UGT2B7 probe substrate, 1% (w/v) BSA): 18.6 ± 8.62 µM
IC50 (read-out: concentration showing 50% inhibition of ZDV glucuronidation in HLM (screening), screening at 1 µM, 10 µM and 100 µM): < 100 µM
